Assay results reported in paper PMC9655119, “Sustained Activation of CLR/RAMP Receptors by Gel-Forming Agonists” (International Journal of Molecular Sciences, 2022).

Protein sequences, listed by entry. Tags and fused reporters are not part of them. Residues count along the entry.
UniProt O60895, 43-175: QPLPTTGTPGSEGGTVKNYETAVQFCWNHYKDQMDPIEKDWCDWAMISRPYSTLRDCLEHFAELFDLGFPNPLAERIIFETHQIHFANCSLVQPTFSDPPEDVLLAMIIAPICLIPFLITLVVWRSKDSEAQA
UniProt Q16602, 23-461: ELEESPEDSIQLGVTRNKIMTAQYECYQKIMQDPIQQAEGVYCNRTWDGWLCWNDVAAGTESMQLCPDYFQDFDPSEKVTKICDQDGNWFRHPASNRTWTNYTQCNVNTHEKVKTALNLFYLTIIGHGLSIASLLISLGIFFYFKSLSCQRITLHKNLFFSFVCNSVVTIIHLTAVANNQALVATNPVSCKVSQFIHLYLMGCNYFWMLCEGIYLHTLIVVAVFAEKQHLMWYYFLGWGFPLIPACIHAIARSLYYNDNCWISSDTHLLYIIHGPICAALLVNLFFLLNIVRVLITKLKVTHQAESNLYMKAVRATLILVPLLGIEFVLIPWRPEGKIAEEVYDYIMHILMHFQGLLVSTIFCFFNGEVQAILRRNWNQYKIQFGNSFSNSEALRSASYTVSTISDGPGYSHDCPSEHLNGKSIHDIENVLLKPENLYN

Molecular target: T1, human CLR/RAMP2 (Homo sapiens, UniProt O60895+Q16602)
T1 construct: host or cells: CHO-K1 cells (PathHunter β-Arrestin cell line)
Test: CLR/RAMP2 receptor-activation assay (PathHunter β-Arrestin)
Type: cell-based
Procedure: The bioactivity of peptide analogs was studied using CLR/RAMP1, CLR/RAMP2, and CLR/RAMP3 assays by DiscoveRx (Fremont, CA, USA) in cells that stably express human CLR/RAMP1 (1321N1 cells), CLR/RAMP2 (CHO-K1 cells), or CLR/RAMP3 (CHO-K1 cells). The dose-dependent stimulatory effect of agonists was studied in duplicate, at 10 different concentrations. Determination of the half-maximal effective concentration (EC50) was performed using a 10-point dose-response curves. The starting concentration was 1.0 μM, and it was serially diluted 3-fold, in DMSO.
In this assay, the CLR was fused in frame with a small enzyme donor fragment ProLink™ (PK). The receptor was co-expressed with a fusion protein of β-arrestin and an N-terminal deletion mutant of β-galactosidase (i.e., enzyme acceptor). Activation of the CLR/RAMP2 receptor stimulated the binding of β-arrestin to the PK-tagged receptor and led to an increase in enzyme activities which can then be measured with the PathHunter detection reagents. PathHunter cell lines were seeded in a total volume of 20 μL into 384-well microplates and incubated at 37 °C prior to the assay. Intermediate dilution of samples was performed to generate 5X samples in the assay buffer. A 5 μL aliquot of 5X sample was added to cells and incubated at 37 °C for 90 min. Vehicle concentration was 1%.

Structure (SMILES): CCCCCCCCCCCCCCCC(=O)NCCCC[C@H](NC(=O)COCCOCCN)C(=O)N[C@H](C(=O)N[C@@H](CCCCN)C(=O)N[C@@H](CCCCN)C(=O)N[C@H](C(=O)N[C@@H](CC(C)C)C(=O)N[C@@H](CCCNC(=N)N)C(=O)N[C@H](C(=O)NCC(=O)N[C@H]1CSSC[C@@H](C(=O)N[C@H](C(=O)N[C@H](C(=O)N[C@@H](CCC(N)=O)C(=O)N[C@@H](CCCCN)C(=O)N[C@@H](CC(C)C)C(=O)N[C@@H](C)C(=O)N[C@@H](Cc2c[nH]cn2)C(=O)N[C@@H](CCC(N)=O)C(=O)N[C@H](C(=O)N[C@@H](Cc2ccc(O)cc2)C(=O)N[C@@H](CCC(N)=O)C(=O)N[C@@H](Cc2ccccc2)C(=O)N[C@H](C(=O)N[C@@H](CC(=O)O)C(=O)N[C@@H](CCCCN)C(=O)N[C@@H](CC(=O)O)C(=O)N[C@@H](CCCCN)C(=O)N[C@@H](CC(=O)O)C(=O)N[C@@H](CC(N)=O)C(=O)N[C@H](C(=O)N[C@@H](C)C(=O)N2CCC[C@H]2C(=O)N[C@@H](CCCNC(=N)N)C(=O)N[C@@H](CO)C(=O)N[C@@H](CCCCN)C(=O)N[C@H](C(=O)N[C@@H](CO)C(=O)N2CCC[C@H]2C(=O)N[C@@H](CCC(N)=O)C(=O)NCC(=O)N[C@@H](Cc2ccc(O)cc2)C(N)=O)[C@@H](C)CC)C(C)C)[C@@H](C)O)[C@@H](C)CC)C(C)C)[C@@H](C)O)NC(=O)[C@H]([C@@H](C)O)NC(=O)CNC(=O)[C@H](Cc2ccccc2)NC(=O)[C@H](CCCNC(=N)N)NC1=O)[C@@H](C)O)[C@@H](C)O)[C@@H](C)O [Analog C-8]
- EC50: 1.1 nM
